Earlier results on one substance are cited in US20120309691A1, “TUMOR TARGETED DELIVERY OF IMMUNOMODULATORS BY NANOPOLYMERS” (priority 2010, published 2012).

The test system of this series is advanced metastatic melanoma. To be noted: retrospective long-term analysis; cited from earlier work.

For “IL-2: exogenous cytokine approved for advanced metastatic melanoma”, the durable response rate is listed as 4% and the objective response rate is on record as 16%.
